Results taken from US20250230129A1, “POLYAMIDE COMPOUNDS, METHOD FOR PREPARING SAME, AND MEDICAL USE THEREOF” (priority 2022, published 2025).
pEC50, pKi: −log10 of the molar value. Where two headings read alike, the source gives them in different places.

By UniProt entry, the sequences of proteins in these tests, tags left out.
UniProt P35372, whole entry: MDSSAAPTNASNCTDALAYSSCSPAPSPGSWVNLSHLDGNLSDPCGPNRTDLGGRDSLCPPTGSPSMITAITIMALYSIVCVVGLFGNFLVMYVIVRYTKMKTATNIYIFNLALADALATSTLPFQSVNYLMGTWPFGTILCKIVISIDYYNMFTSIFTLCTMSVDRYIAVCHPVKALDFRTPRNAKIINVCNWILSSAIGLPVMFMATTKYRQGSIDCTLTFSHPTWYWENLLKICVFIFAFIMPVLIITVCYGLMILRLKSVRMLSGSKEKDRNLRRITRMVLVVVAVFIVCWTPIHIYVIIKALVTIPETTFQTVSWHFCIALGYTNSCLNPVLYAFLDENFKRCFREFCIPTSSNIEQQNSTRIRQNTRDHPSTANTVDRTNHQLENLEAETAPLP
UniProt Q12809, whole entry: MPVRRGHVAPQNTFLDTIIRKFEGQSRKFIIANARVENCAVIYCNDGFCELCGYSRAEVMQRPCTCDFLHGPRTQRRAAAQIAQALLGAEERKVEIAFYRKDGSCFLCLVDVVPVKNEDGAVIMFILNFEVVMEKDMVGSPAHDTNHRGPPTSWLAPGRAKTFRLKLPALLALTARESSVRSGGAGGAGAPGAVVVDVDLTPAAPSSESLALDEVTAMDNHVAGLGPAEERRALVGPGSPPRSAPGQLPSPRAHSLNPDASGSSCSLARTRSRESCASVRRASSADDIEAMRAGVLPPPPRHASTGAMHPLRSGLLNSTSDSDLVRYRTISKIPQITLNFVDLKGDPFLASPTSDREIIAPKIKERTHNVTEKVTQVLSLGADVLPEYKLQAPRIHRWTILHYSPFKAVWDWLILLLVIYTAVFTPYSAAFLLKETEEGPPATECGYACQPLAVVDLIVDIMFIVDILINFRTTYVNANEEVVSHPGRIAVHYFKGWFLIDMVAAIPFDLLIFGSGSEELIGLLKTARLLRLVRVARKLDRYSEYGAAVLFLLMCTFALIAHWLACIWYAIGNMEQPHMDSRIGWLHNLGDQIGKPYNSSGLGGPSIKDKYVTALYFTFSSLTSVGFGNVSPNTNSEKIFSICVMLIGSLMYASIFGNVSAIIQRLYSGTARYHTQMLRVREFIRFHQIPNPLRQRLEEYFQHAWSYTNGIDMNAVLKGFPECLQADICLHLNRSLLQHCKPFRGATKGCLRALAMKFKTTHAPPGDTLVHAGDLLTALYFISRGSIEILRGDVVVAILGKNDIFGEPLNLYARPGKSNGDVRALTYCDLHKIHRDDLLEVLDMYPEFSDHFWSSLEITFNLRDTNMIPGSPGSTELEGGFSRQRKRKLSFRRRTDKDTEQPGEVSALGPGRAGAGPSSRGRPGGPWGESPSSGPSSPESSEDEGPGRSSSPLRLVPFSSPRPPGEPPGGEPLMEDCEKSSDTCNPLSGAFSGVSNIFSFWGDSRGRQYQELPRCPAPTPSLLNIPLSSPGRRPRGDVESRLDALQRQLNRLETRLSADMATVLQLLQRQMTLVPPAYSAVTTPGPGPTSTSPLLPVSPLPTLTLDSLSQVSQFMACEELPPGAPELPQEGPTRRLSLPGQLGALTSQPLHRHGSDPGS

Key:
μ receptor = μ receptor (Homo sapiens (Human), UniProt P35372); assay: μ receptor affinity assay (3H-DAMGO); assay type: binding; settings: read-out: μ receptor Ki, CHO-K1-μ membranes, 3H-DAMGO 2 nM
[1] = target: κ-opioid receptor (Kappa) (Homo sapiens (Human), UniProt P41145); assay: In vitro functional assay, HTRF cAMP-Gi in CHO-K1-OPRK1 cells; assay type: cell-based
δ receptor = δ receptor (Homo sapiens (Human), UniProt P41143); assay: Competitive delta receptor binding assay (3H-DADLE); settings: read-out: δ receptor Ki, CHO-K1-delta membranes, 3H-DADLE 4 nM
κ receptor = κ receptor (Homo sapiens (Human), UniProt P41145); assay: Competitive Kappa receptor binding assay (3H-U69593); settings: read-out: κ receptor Ki, CHO-K1-Kappa membranes, 3H-U69593 2 nM
ICR mice [2] = assay: Sedation safety window
ICR mice [3] = assay: Acetic acid writhing test in mice; assay type: in vivo; settings: single intravenous injection, male ICR mice
ICR mice [4] = assay: Autonomous activity test in mice; settings: single intravenous injection, male ICR mice, 30 min recording
hERG = hERG (Homo sapiens (Human), UniProt Q12809); assay: hERG potassium ion channel manual patch-clamp; settings: 10 μM, HEK293 cells stably expressing hERG; tested form: formate
[5] = PK and blood-brain barrier permeability in mice; settings: male ICR mice, intravenous 1 mg/kg
[6] = read-out: In vitro agonistic effects on k-opioid receptors EC50, 1 μM Forskolin, tested form: formate

SMILES: COC(=O)N(CCCN)C1CCN(C(=O)[C@@H](C)NC(=O)[C@@H](CC(C)C)NC(=O)[C@@H](Cc2ccccc2)NC(=O)N(C)C(CN)c2ccccc2)CC1 (stereo partly drawn)
- pKi (μ receptor; tested form: formate): < 6.00
- pEC50 [1, 6]: 8.21
- pKi (δ receptor; tested form: formate): < 6.00
- pKi (κ receptor; tested form: formate): 8.70

SMILES: CC(C)C[C@@H](NC(=O)[C@@H](Cc1ccccc1)NC(=O)[C@H](O)Cc1ccccc1)C(=O)N[C@H](CCCCN)C(=O)N1CCS(=N)(=O)CC1
- pKi (μ receptor; tested form: formate): < 6.00
- pKi (δ receptor; tested form: formate): < 6.00
- pKi (κ receptor; tested form: formate): 7.95

SMILES: COC(=O)N(CCCN)C1CCN(C(=O)[C@@H](C)NC(=O)[C@@H](CC(C)C)NC(=O)[C@@H](Cc2ccccc2)NC(=O)[C@H](N)Cc2ccccc2)CC1
- Safety window (ICR mice [2]; sedation side effect ED50 (autonomic activity test)/efficacy ED50 (acetic acid writhing test), tested form: formate): 3.43
- Acetic acid writhing in mice ED50 (ICR mice [3]; tested form: formate): 1.61 mg/kg
- pKi (μ receptor; tested form: formate): < 6.00
- pEC50 [1, 6]: 9.23
- pKi (δ receptor; tested form: formate): < 6.00
- pKi (κ receptor; tested form: formate): 9.32
- Autonomous activity in mice ED50 (ICR mice [4]; tested form: formate): 5.52 mg/kg

SMILES: CC(C)C[C@@H](NC(=O)[C@@H](Cc1ccccc1)NC(=O)[C@H](N)Cc1ccccc1)C(=O)N[C@H](CCCCN)C(=O)N1CCC2(CC1)CCN(C)c1ncccc12
- pKi (μ receptor; tested form: formate): < 6.00
- pEC50 [1, 6]: > 10.00
- pKi (δ receptor; tested form: formate): < 6.00
- pKi (κ receptor; tested form: formate): 9.22

SMILES: COC(=O)NC1CCN(C(=O)[C@@H](CCCCN)NC(=O)[C@@H](CC(C)C)NC(=O)[C@@H](Cc2ccccc2)NC(=O)NC(CN)c2ccccc2)CC1 (stereo partly drawn)
- pKi (μ receptor; tested form: formate): < 6.00
- pEC50 [1, 6]: 8.91
- pKi (δ receptor; tested form: formate): < 6.00
- pKi (κ receptor; tested form: formate): 8.46

SMILES: CC(C)C[C@@H](NC(=O)[C@@H](Cc1ccccc1)NC(=O)[C@H](N)Cc1ccccc1)C(=O)N[C@H](CCCCN)C(=O)N1CCC2(CC1)CNC(=O)c1ncccc12
- % inhibition rate of hERG current (hERG): 4.15% ± 0.07%
- pKi (μ receptor; tested form: formate): < 6.00
- pEC50 [1, 6]: 9.52
- pKi (δ receptor; tested form: formate): < 6.00
- pKi (κ receptor; tested form: formate): 9.47

SMILES: CC(C)CC(NC(=O)C(Cc1ccccc1)NC(=O)N(C)C(CN)c1ccccc1)C(=O)NC(CCCCN)C(=O)N1CCC(N)(C(=O)O)CC1 (single isomer, unassigned) [2-0]
- pKi (μ receptor; tested form: formate): < 6.00
- pKi (δ receptor; tested form: formate): < 6.00
- pKi (κ receptor; tested form: formate): 8.94

SMILES: CC(C)CC(NC(=O)C(Cc1ccccc1)NC(=O)N(C)C(CN)c1ccccc1)C(=O)NC(CCCCN)C(=O)N1CCC(N)(C(=O)O)CC1 (single isomer, unassigned) [2-100]
- pKi (μ receptor; tested form: formate): < 6.00
- pKi (δ receptor; tested form: formate): < 6.00
- pKi (κ receptor; tested form: formate): 7.49

SMILES: CC(C)C[C@@H](NC(=O)[C@@H](Cc1ccccc1)NC(=O)N(CCN)CC1CCCC1)C(=O)N[C@H](CCCCN)C(=O)N1CCC(N)(C(=O)O)CC1
- pKi (μ receptor; tested form: formate): < 6.00
- pEC50 [1, 6]: 8.51
- pKi (δ receptor; tested form: formate): < 6.00
- pKi (κ receptor; tested form: formate): 9.03

SMILES: COC(=O)NC1CCN(C(=O)[C@@H](CCCCN)NC(=O)[C@@H](CC(C)C)NC(=O)[C@@H](Cc2ccccc2)NC(=O)N(CCN)Cc2ccccc2)CC1
- Safety window (ICR mice [2]; mouse, in vivo): 5.13
- Acetic acid writhing in mice ED50 (ICR mice [3]): 0.27 mg/kg
- pKi (μ receptor): < 6.00
- pEC50 ([1]; read-out: In vitro agonistic effects on k-opioid receptors EC50, 1 μM Forskolin): 10.10
- pKi (δ receptor): < 6.00
- AUC(0-∞) [5]: 2.50355 µg·h/mL
- Clearance [5]: 0.40 L/h/kg
- Vd [5]: 0.51 L/kg
- t½ [5]: 52.2 min
- B/P (brain-to-blood ratio) ([5]; blood and brain 5 min after administration): 0.010
- Cmax ([5]; plasma): 4.72952 µg/mL
- pKi (κ receptor): 9.59
- Autonomous activity in mice ED50 (ICR mice [4]): 1.37 mg/kg

SMILES: CN=S1(=O)CCN(C(=O)[C@@H](CCCCN)NC(=O)[C@@H](CC(C)C)NC(=O)[C@@H](Cc2ccccc2)NC(=O)[C@H](N)Cc2ccccc2)CC1
- pKi (μ receptor; tested form: formate): < 6.00
- pEC50 [1, 6]: 9.52
- pKi (δ receptor; tested form: formate): < 6.00
- pKi (κ receptor; tested form: formate): 9.04

SMILES: CC(C)C[C@@H](NC(=O)[C@@H](Cc1ccccc1)NC(=O)N(C)C(CN)c1ccccc1)C(=O)N[C@H](CCCCN)C(=O)N1CCC2(CC1)CC(N)(C(=O)O)C2 (stereo partly drawn)
- pKi (μ receptor; tested form: formate): < 6.00
- pKi (δ receptor; tested form: formate): < 6.00
- pKi (κ receptor; tested form: formate): 8.79
